Biological target: T1, uric acid transporter URAT1 (Homo sapiens, UniProt Q96S37)
T1 construct: expressed in transfected cells; host or cells: HEK293A, stably overexpressing URAT1; the empty vector control is HEK293A-pcDNA3.1
Assay: Uptake cell inhibition experiment: URAT1-mediated 14C-uric acid uptake in HEK293A-URAT1 cells
Type: cell-based
Details: 2 min administration, n=3, read-out: IC50, inhibition of uptake of 14C-UA mediated by URAT1
Procedure: 1. Preparation of each working solution
1) DMSO was used as the solvent of a 200-fold working solution, the storing solution was diluted to a 200-fold working solution at each administration concentration.
2) Hanks balanced salt solution (without Cl^−) was used as the solvent for the 2-fold working solution of transport protein URAT1, and then 200-fold working solution in 1) was diluted by 100 times to obtain a 2-fold working solution at each administration concentration. […]
First, the culture medium in the culture plate was removed, and it was washed once with Hanks buffer salt solution (without Cl^−). […] The cell lysate was taken into a scintillation vial, and 3 mL of Aquasol-2 scintillation liquid was added, and the radioactive intensity in the sample was measured by using Tri-Carb 2910TR liquid scintillation instrument. […]
Three repeats (i.e. n=3) were set for each administration concentration. Mean±standard error (SD) was calculated using statistical formulas in Microsoft® Excel 2010 software.
According to the inhibitory rate (IR) for each transporter at each administration concentration, IC50 value, the effect of the compound on the transport activity of the drug transporter was calculated through Prism5.0 in combination with the Forecast function in Microsoft® Excel 2010 software. […]

The chains behind the UniProt entries cited, without tags or fusion partners. Where a name states a change or a piece, a line headed by the entry shows the natural chain unless it says otherwise.
UniProt Q96S37: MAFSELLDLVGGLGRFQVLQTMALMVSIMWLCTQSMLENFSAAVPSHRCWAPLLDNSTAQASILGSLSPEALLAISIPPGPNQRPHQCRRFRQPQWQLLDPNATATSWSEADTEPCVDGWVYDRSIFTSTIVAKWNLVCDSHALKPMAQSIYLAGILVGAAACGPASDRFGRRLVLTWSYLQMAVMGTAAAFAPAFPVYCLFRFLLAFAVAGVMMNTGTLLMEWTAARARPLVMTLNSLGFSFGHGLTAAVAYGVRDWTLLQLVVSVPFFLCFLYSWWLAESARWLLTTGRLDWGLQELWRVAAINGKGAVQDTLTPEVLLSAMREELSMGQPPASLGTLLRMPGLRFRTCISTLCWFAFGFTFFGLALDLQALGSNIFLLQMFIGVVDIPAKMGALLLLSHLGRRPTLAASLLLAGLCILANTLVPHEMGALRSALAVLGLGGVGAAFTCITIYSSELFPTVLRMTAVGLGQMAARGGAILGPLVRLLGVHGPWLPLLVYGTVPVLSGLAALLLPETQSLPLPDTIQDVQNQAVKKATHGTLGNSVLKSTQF

- IC50: 6.01 µM
SMILES: O=C(O)CSc1nnc(Br)n1-c1ccc(C2CC2)c2ccccc12 [lesinurad, reference compound]

Source: patent US10995087B2, “Crystal form of URAT1 inhibitor, and preparation method therefor” (MEDSHINE DISCOVERY INC., priority 2017, dated 2021)
